Cyclic peptide permeability, from CycPeptMPDB

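Lipid, pH, incubation time, direction and concentration are not recorded in the data file. The list need not hold all peptides of the study. Entries at the database's floor value (log10 P of -10) are not listed.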

PAMPA measures passive passage through an artificial lipid membrane. Permeability is given as log10 of P in cm/s; higher (less negative) is more permeable.

The entry for NCCCC[C@@H]1NC(=O)[C@H](Cc2c[nH]c3c(Br)cccc23)NC(=O)[C@H](CCCCN)NC(=O)[C@H]2CCCN2C(=O)[C@H](Cc2c[nH]c3c(Br)cccc23)NC1=O lists PAMPA -5.89 (log10 cm/s).
The entry for NCCCC[C@@H]1NC(=O)[C@H](Cc2c[nH]c3cc(Br)ccc23)NC(=O)[C@H](CCCCN)NC(=O)[C@H]2CCCN2C(=O)[C@H](Cc2c[nH]c3cc(Br)ccc23)NC1=O lists PAMPA -5.34 (log10 cm/s).
The entry for NCCCC[C@@H]1NC(=O)[C@H](Cc2c[nH]c3ccc(Br)cc23)NC(=O)[C@H](CCCCN)NC(=O)[C@H]2CCCN2C(=O)[C@H](Cc2c[nH]c3ccc(Br)cc23)NC1=O lists PAMPA -5.33 (log10 cm/s).
The entry for NCCCC[C@@H]1NC(=O)[C@H](Cc2c[nH]c3ccccc23)NC(=O)[C@H](CCCCN)NC(=O)[C@H]2CCCN2C(=O)[C@H](Cc2c[nH]c3ccccc23)NC1=O lists PAMPA -5.57 (log10 cm/s).

Collected by the curators of CycPeptMPDB (Li et al. 2023) from García-Pindado et al. 2018, doi:10.1002/bip.23112.